# How the values were obtained:
# Format in all cases: in vivo, Mice
# [1] = tested on: GXA 3039 HER2 positive gastric cancer PDX model; assay: GXA 3039 gastric cancer PDX model, tumor growth inhibition; settings: study day 29; tucatinib 50 mg/kg orally twice per day, trastuzumab 20 mg/kg intraperitoneally once every three days
# Method: (§1) The TGI index is calculated for a particular time point (e.g., a specific number of days into an experiment or clinical trial) according to the following formula: […]
# (§2) where “Tx Day 0” denotes the first day that treatment is administered (i.e., the first day that an experimental therapy or a control therapy (e.g., vehicle only) is administered) and “Tx Day X” denotes X number of days after Day 0. Typically, mean volumes for treated and control groups are used. As a non-limiting example, in an experiment where study day 0 corresponds to “Tx Day 0” and the TGI index is calculated on study day 28 (i.e., “Tx Day 28”), if the mean tumor volume in both groups on study day 0 is 250 mm^3 and the mean tumor volumes in the experimental and control groups are 125 mm^3 and 750 mm^3, respectively, then the TGI index on day 28 is 125%.
# (§3) Tucatinib was administered orally at a dose of 50 mg/kg twice per day for 28 days (study days 0-27). […] A vehicle-only group was included as a negative control.
# [2] = tested on: CTG-0138 HER2 positive esophageal cancer PDX model; assay: CTG-0138 esophageal cancer PDX model, tumor growth inhibition; settings: study day 30; tucatinib 50 mg/kg orally twice per day, trastuzumab 20 mg/kg intraperitoneally once every three days
# Method: as §1, §2, §3
# [3] = tested on: GXA 3038 HER2 positive gastric cancer PDX model; assay: GXA 3038 gastric cancer PDX model, tumor growth inhibition; settings: study day 28; tucatinib 50 mg/kg orally twice per day, trastuzumab 20 mg/kg intraperitoneally once every three days
# Method: as §1, §2, §3
# [4] = tested on: CTG-0927 HER2 positive cholangiocarcinoma PDX model; assay: CTG-0927 cholangiocarcinoma PDX model, tumor growth inhibition; settings: study day 28; tucatinib 50 mg/kg orally twice per day, trastuzumab 20 mg/kg intraperitoneally once every three days
# Method: as §1, §2, §3
# [5] = tested on: GXA 3054 HER2 positive gastric cancer PDX model; assay: GXA 3054 gastric cancer PDX model, tumor growth inhibition; settings: study day 17; tucatinib 50 mg/kg orally twice per day, trastuzumab 20 mg/kg intraperitoneally once every three days
# Method: as §1, §2, §3
# [6] = tested on: NCI-H2170 NSCLC xenograft model; assay: NCI-H2170 NSCLC xenograft model, tumor growth inhibition; settings: study day 39; tucatinib 50 mg/kg orally twice per day for 21 days, trastuzumab 20 mg/kg intraperitoneally twice per week, from study day 18
# Method: as §1, §2
# (§4) For the Calu-3 study, tucatinib was administered orally at a dose of 50 mg/kg twice per day for 21 days, beginning on study day 7. […] Seven doses of trastuzumab were administered. A vehicle-only group was included as a negative control. Three individual animals received dose holidays (one in the negative control group and two in the combination therapy group).
# For the NCI-H2170 study, tucatinib was administered orally at a dose of 50 mg/kg twice per day for 21 days, beginning on study day 18. […] A vehicle-only group was included as a negative control.
# [7] = tested on: Calu-3 NSCLC xenograft model; assay: Calu-3 NSCLC xenograft model, tumor growth inhibition; settings: study day 28; tucatinib 50 mg/kg orally twice per day for 21 days, trastuzumab 20 mg/kg intraperitoneally once every three days, from study day 7
# Method: as §1, §2, §4
# [8] = tested on: CTG-0137 HER2 positive esophageal cancer PDX model; assay: CTG-0137 esophageal cancer PDX model, tumor growth inhibition; settings: study day 15; tucatinib 50 mg/kg orally twice per day, trastuzumab 20 mg/kg intraperitoneally once every three days
# Method: as §1, §2, §3
# [9] = tested on: CTG-0784 HER2 positive CRC PDX model; assay: CTG-0784 CRC PDX model, tumor growth inhibition; settings: study day 29; tucatinib 50 mg/kg orally twice per day, trastuzumab 20 mg/kg intraperitoneally once every three days
# Method: as §1, §2, §3
substance,measurement,setting,value
trastuzumab,Observed TGI (tumor growth inhibition index),[1],38%
same,Observed TGI (tumor growth inhibition index),[2],−34%
same,Observed TGI (tumor growth inhibition index),[3],50%
same,Observed TGI (tumor growth inhibition index),[4],63%
same,Observed TGI (tumor growth inhibition index),[5],93%
same,Observed TGI (tumor growth inhibition index),[6],61%
same,Observed TGI (tumor growth inhibition index),[7],86%
same,Observed TGI (tumor growth inhibition index),[8],55%
same,Observed TGI (tumor growth inhibition index),[9],36%

# Reference: patent publication US20230270745A1 (Seagen Inc., priority 2020, published 2023)
